Assay outcomes from PubChem BioAssay.
PGC1a acetyl inh = inhibitors of PGC1a acetylation signal, primary screen, cell-based, U2OS, AlphaScreen, inhibitor mode | AlphaScreen anti-acetyl-lysine; with virally co-expressed GCN5 acetyltransferase | inhibition, % at 15.6 µM | 350,000 tested, 0.17% active | AID 651687, 2012;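 active means every replicate shows inhibition of at least 40%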;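 further: 0% = neutral control wells and 100% = positive control wells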
miR-122 sensor = miR-122 Renilla sensor signal increase in Huh7, primary screen, miR-122 inhibitor project, cell-based, single point, plate reader; Huh7 miR-122 Renilla luciferase sensor, 48 h; neutral wells = 0, positive control = 100; 340,000 tested, 0.3% active; activation (reporter increase), % at 12.5 µM;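 active means mean replicate activation score at least 90 and every replicate individually at or above 90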;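 further: higher luciferase means less miR-122 activity so hits act as miR-122 inhibitors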
Wnt bcat act = Wnt/beta-catenin pathway activators, primary screen, cell-based, plate reader, single point; 300,000 tested, 1.2% active; Wnt/beta-catenin reporter cell assay, activator; activation, % at 9.35 µM; in the data active means activation above about 30%, passing the limit was not always enough;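 further: 0% = neutral control wells and 100% = positive control wells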
UUG fidelity = modulators of yeast start codon fidelity, primary screen, whole organism, S. cerevisiae, single point, plate reader | AID 602363, 2012 | S. cerevisiae UUG-firefly luciferase reporter, luminescence/redox ratio | activity score, % at 18.7 µM | hit rate 0.13% among 350,000;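 active = replicate mean at a twofold rise or more, about +100% in these data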;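 also: firefly luciferase made from a UUG start codon reports start codon fidelity; reporter light over untreated wells divided by growth signal over untreated wells; some hits fall short of that in this replicate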
MITF TRPM1 HTS = activators of MITF-driven TRPM1 promoter reporter, primary screen, cell-based, SK-MEL-5, luciferase, single point; activation, % at 12.5 µM; 300,000 tested, 0.75% active; SK-MEL-5 TRPM1-promoter luciferase, 24 h; % of positive control, neutral wells = 0;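 active means mean activation of at least 80% with every replicate also reaching 80%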;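 further: 0% = neutral control wells and 100% = parthenolide positive control wells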
MITF TRPM1 inh = inhibitors of MITF-dependent TRPM1 promoter reporter, primary screen, cell-based, SK-MEL-5, single point, luciferase | SK-MEL-5 TRPM1 promoter luciferase, 24 h | inhibition, % at 12.5 µM | 330,000 tested, 0.83% active | AID 488899, 2010;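 active means mean inhibition across replicates of 60% or more, whatever share of single replicates reaches that level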
Starred values were filed as active, the others as inactive; x = not tested or not shown; ! = repeats disagree; [ ] = another dose, or the depositor's remark. Shown are actives, neighbours in structure and some others; about 2.1% of the full set was active somewhere.

compound	MITF TRPM1 HTS	miR-122 sensor	UUG fidelity	PGC1a acetyl inh	MITF TRPM1 inh	Wnt bcat act
COc1ccccc1C1c2ccc3ccccc3c2Oc2ncn(CCN(C)C)c(=N)c21 (stereo not given)	-70	-2	-4	-58	69*	-6
COc1ccc(C2c3ccc4ccccc4c3Oc3ncn(Cc4ccco4)c(=N)c32)cc1OC (stereo not given)	-27	18	-20	7	27	x
COc1ccc(C2c3c(ncn(CCCO)c3=N)Oc3ccc4ccccc4c32)cc1 (stereo not given)	x	-4	-10	-30	26	-2
COc1ccccc1C1c2ccc3ccccc3c2Oc2ncn(CCCO)c(=N)c21 (stereo not given)	-61	-3	0	-1	62*	x
CO[C@@H]1CN(C)C(=O)c2cc(NS(=O)(=O)c3ccccc3Cl)ccc2OC[C@@H](C)NC[C@@H]1C	x	5[16.7 µM]	-1	7	x	x
C[C@@H]1CN([C@H](C)CO)C(=O)c2cc(C#Cc3ccccc3F)cnc2O[C@H]1CN(C)C(=O)C1CCC1	x	-12[16.7 µM]	23	1	x	x
O=C(NC(CSCc1ccccc1)C(=O)N/N=C/c1ccc(O)cc1O)c1ccc([N+](=O)[O-])cc1 (stereo not given)	-70	-2	-25	-4	70*	x
COc1cccc(C(=O)Nc2ccc3c(c2)C(=O)N(C)[C@@H]2CC[C@@H](CC(=O)NCC(F)(F)F)O[C@@H]2CO3)c1	x	-28[16.7 µM]	x	0	x	x

Continuation:
compound	MITF TRPM1 HTS	miR-122 sensor	UUG fidelity	PGC1a acetyl inh	MITF TRPM1 inh	Wnt bcat act
CCN(CC)c1ccc(NC(=O)c2ccccn2)cc1S(=O)(=O)Nc1ccccc1OC	0	125*	-5	-7	1	-3
CCN(CC)c1ccc(NC(=O)COc2ccccc2C#N)cc1S(=O)(=O)Nc1ccccc1OC	3	288*	-21	-37	1	-1
Cc1cc(-c2nc3ccccc3c(=O)o2)ccc1[N+](=O)[O-]	11	0	-13	x	-14	39*
Cc1ccc(-c2nc3ccccc3c(=O)o2)cc1	20	2	-18	-3	-23	3
O=C(Nc1ccccn1)c1ccc(S(=O)(=O)N2CCCCCC2)cc1	64	x	x	x	-67	25
O=C(Nc1ccccn1)c1ccc(S(=O)(=O)N2CCCCC2)cc1	91*	x	-11	x	-87	23
O=C(Nc1ccccn1)c1cccc(S(=O)(=O)N2CCCc3ccccc32)c1	-11	x	-23	x	14	-6
Cc1ccnc(NC(=O)c2ccc(S(=O)(=O)N3CCCCCC3)cc2)c1	84*	x	x	x	-80	34*

(list continues)
compound	MITF TRPM1 HTS	miR-122 sensor	UUG fidelity	PGC1a acetyl inh	MITF TRPM1 inh	Wnt bcat act
Cc1ccnc(NC(=O)c2cccc(S(=O)(=O)N3CCCc4ccccc43)c2)c1	88*	1	-34	1	-82	30
CO[C@H]1CN(C)C(=O)c2ccc(NS(=O)(=O)c3cccc(Cl)c3)cc2OC[C@@H](C)NC[C@H]1C	x	x	x	-9	x	x
Cc1ccc(S(=O)(=O)Nc2ccc3c(c2)CC(=O)N([C@@H](C)CO)C[C@@H](C)[C@H](CN(C)C(=O)Nc2ccc(F)cc2)O3)cc1	x	-1[16.7 µM]	9	2	x	x
Oc1nc(Nc2cccc(Cl)c2)sc1/C=C1\C=Nc2ccccc21	0	22	-27	x	-2	1
CCOC(=O)c1c(Nc2ccc(Cl)cc2)sc(/C=C2\C=Nc3ccccc32)c1O	-1	107*!	-9	-1	4	-6
C[C@H]1CN([C@@H](C)CO)C(=O)CCCn2cc(nn2)CO[C@H]1CN(C)Cc1ccc(O)cc1	x	1[16.7 µM]	-6	3	x	x
C[C@H](CO)N1C[C@H](C)[C@@H](CN(C)Cc2ccncc2)Oc2cc(C#CC3CC3)ccc2S1(=O)=O	x	14[16.7 µM]	-7	-12	x	x
Cc1cc(C(=O)COc2cccnc2[N+](=O)[O-])c(C)n1-c1ccccc1	-69	x	x	x	68*	-2

Reformatted: results already given
MITF TRPM1 HTS	miR-122 sensor	UUG fidelity	PGC1a acetyl inh	MITF TRPM1 inh	Wnt bcat act	SMILES
84*	x	x	x	-80	34*	Cc1ccnc(NC(=O)c2ccc(S(=O)(=O)N3CCCCCC3)cc2)c1
88*	1	-34	1	-82	30	Cc1ccnc(NC(=O)c2cccc(S(=O)(=O)N3CCCc4ccccc43)c2)c1

Next section
compound	MITF TRPM1 HTS	miR-122 sensor	UUG fidelity	PGC1a acetyl inh	MITF TRPM1 inh	Wnt bcat act
Cc1ccc(-n2c(C)cc(C(=O)COc3cccnc3[N+](=O)[O-])c2C)cc1	-44	0	-3	4	43	-1
C[C@H](CO)N1C[C@H](C)[C@H](CN(C)Cc2ccc(C(=O)Nc3ccccc3N)cc2)Oc2ccc(NC(=O)Nc3cccc4ccccc34)cc2CC1=O	x	96*[16.7 µM]	-8	-26	x	x
C[C@H](CO)N1C[C@H](C)[C@@H](CN(C)Cc2ccc(C(=O)Nc3ccccc3N)cc2)Oc2ccc(NC(=O)CCC(F)(F)F)cc2CC1=O	x	x	x	6	x	x
CC(C)NC(=O)Nc1ccc2c(c1)CC(=O)N([C@H](C)CO)C[C@H](C)[C@@H](CN(C)Cc1ccc(C(=O)Nc3ccccc3N)cc1)O2	x	15[16.7 µM]	x	1	x	x
CC(C)NC(=O)Nc1ccc2c(c1)CC(=O)N([C@H](C)CO)C[C@H](C)[C@H](CN(C)Cc1ccc(C(=O)Nc3ccccc3N)cc1)O2	x	114*[16.7 µM]	x	-6	x	x
C[C@H](CO)N1C[C@H](C)[C@H](CN(C)Cc2ccc(C(=O)Nc3ccccc3N)cc2)Oc2ccc(NC(=O)CCC(F)(F)F)cc2CC1=O	x	98*[16.7 µM]	-2	-10	x	x
C[C@@H]1CN([C@H](C)CO)C(=O)c2cc(C#CC(C)(C)O)cnc2O[C@@H]1CN(C)C(=O)c1ccccc1F	x	0[16.7 µM]	9	4	x	x
CO[C@H]1CN(C)C(=O)c2cc(NC(=O)CC(F)(F)F)ccc2OC[C@H](C)N(CCC(F)(F)F)C[C@@H]1C	x	-11[16.7 µM]	-10	0	x	x

Whole records, quoted from the list. Values in the order: MITF TRPM1 HTS	miR-122 sensor	UUG fidelity	PGC1a acetyl inh	MITF TRPM1 inh	Wnt bcat act
CO[C@H]1CN(C)C(=O)c2cc(NC(=O)CC(F)(F)F)ccc2OC[C@H](C)N(CCC(F)(F)F)C[C@@H]1C is listed with x	-11[16.7 µM]	-10	0	x	x
C[C@H](CO)N1C[C@H](C)[C@@H](CN(C)Cc2ccc(C(=O)Nc3ccccc3N)cc2)Oc2ccc(NC(=O)CCC(F)(F)F)cc2CC1=O is listed with x	x	x	6	x	x

Further structures
compound	MITF TRPM1 HTS	miR-122 sensor	UUG fidelity	PGC1a acetyl inh	MITF TRPM1 inh	Wnt bcat act
O=C(Nc1cccc(Cl)c1)N[C@@H]1CC[C@@H](CCNC(=O)C2CCCC2)O[C@@H]1CO	x	3[16.7 µM]	3	-2	x	x
CCOC(=O)/C(=C\c1cccnc1)C(=O)c1cc(C(C)=O)c(Nc2ccccc2)s1	-98	-31	6	84*	98*	x
COc1ccc(S(=O)(=O)N(C)CC(=O)N2CCOCC2)cc1	-5	-4	-15	1	7	x
COc1ccc(S(=O)(=O)N(CCc2ccccc2)CC(=O)N2CCOCC2)cc1	x	125*	6	x	7	x
COC(=O)[C@H]1[C@H](CO)[C@H]2Cn3c(ccc(-c4cccnc4)c3=O)[C@H]2N1Cc1ccccc1F	x	4[16.7 µM]	x	x	x	x
Cc1cc(Nc2ccccc2)cc(=O)n1C	x	-1	-5	59*	-8	2
Cn1c(=O)cc(Nc2ccccc2)[nH]c1=O	x	1	-25	0	5	-1
CNC[C@@H]1Oc2cc(-c3cccc(C(=O)N(C)C)c3)ccc2S(=O)(=O)N([C@@H](C)CO)C[C@H]1C	x	-4[16.7 µM]	0	15	x	x
CC(C)n1nc(C(=O)Nc2cccc(S(=O)(=O)NCc3ccco3)c2)c2ccccc2c1=O	0	99*	x	-9	2	-1
Cn1nc(C(=O)Nc2ccc(S(=O)(=O)NCc3ccco3)cc2)c2ccccc2c1=O	x	x	x	x	x	0
